Laboratory results as given in PubChem BioAssay AID686996 (Broad Institute, 2013).
The entries are a selection whose mix differs from that of the whole data set. Active and inactive are the calls of the source.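 How the source made its calls: active means mean inhibition across replicates at least about 35%, with every replicate also reaching that limit (limit read from the data); inconclusive means only one of the two criteria met; inactive means neither criterion met.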

The chains behind the UniProt entries cited, without tags or fusion partners. Where a name states a change or a piece, a line headed by the entry shows the natural chain unless it says otherwise.
UniProt P55212: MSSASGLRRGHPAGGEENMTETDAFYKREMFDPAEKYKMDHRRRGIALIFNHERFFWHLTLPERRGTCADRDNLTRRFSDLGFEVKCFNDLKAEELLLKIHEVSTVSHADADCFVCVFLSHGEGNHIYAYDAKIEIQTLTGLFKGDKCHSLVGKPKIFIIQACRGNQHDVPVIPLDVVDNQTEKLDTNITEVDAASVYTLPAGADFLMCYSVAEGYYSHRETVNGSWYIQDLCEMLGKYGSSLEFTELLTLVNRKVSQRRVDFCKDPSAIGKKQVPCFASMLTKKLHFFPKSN

What follows are molecules tested against Caspase-6 (Homo sapiens) (UniProt P55212) (assay: inhibition of CASP6 peptide cleavage – biochemical, VEID-R110 fluorescence, single point, set 2, primary screen (AID 686996;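 further: 0% = median of neutral control wells and 100% = no fluorescence left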)). Conditions: purified caspase-6, Z-VEID-R110 cleavage fluorescence; at 12.5 µM; stronger effect = higher value.

SMILES	inhibition
Cc1cc(SC(NC=O)C(Cl)(Cl)Cl)ncn1 (stereo not given)	inactive: 4.76%
O=[N+]([O-])c1ccc(Nc2ccc(Oc3ccc([N+](=O)[O-])cc3[N+](=O)[O-])cc2)c([N+](=O)[O-])c1	inactive: 1.86%
COc1cc(C(=O)NCC2(N3CCOCC3)CCCCC2)ccc1OCC(C)C	inactive: 3.5%
O=[N+]([O-])c1ccc(-c2cc([N+](=O)[O-])c(O)c([N+](=O)[O-])c2)cc1	inactive: 21.5%
O=[As](O)(c1ccc(O)cc1)c1ccccc1O	inactive: 12.1%
C[As](=O)(O)c1cccc(C(=O)O)c1	inactive: -0.409%
[N-]=[N+]=NC1CCCCC1NC(=O)c1cc([N+](=O)[O-])cc([N+](=O)[O-])c1 (stereo not given)	inactive: 2.52%
Cc1ccc(OP(=O)(Nc2ccc([N+](=O)[O-])cn2)Oc2ccc(C)cc2)cc1	inactive: -3.02%
Cc1ccc2nc3c(c(C)c2c1)CC(C(Cl)Cl)S3 (stereo not given)	inactive: -2.61%
CC(C)c1ccc(OP(=O)(Nc2ccccn2)Oc2ccccc2F)cc1 (stereo not given)	inactive: 1.8%
COC(=O)C1(C)COP(=O)(N2CCCCCC2)OC1 (stereo not given)	inactive: -2.77%
O=C(OC1CN2CCC1CC2)c1cccc2[nH]cnc12 (stereo not given)	inactive: -14.6%
CC(C)NC(=O)NP(=O)(Oc1ccccc1)Oc1ccccc1	inactive: -1.57%
Cc1c2c(nc3ccccc13)SC(C(Cl)Cl)C2 (stereo not given)	inactive: 1.91%
Cc1cc(=O)[nH]c(N[N+](=O)[O-])n1	inactive: 1.73%
COc1ccc(CN2/C(=N\P(=O)(Oc3ccccc3)Oc3ccccc3)Cc3ccccc3C2C2CC2)cc1 (stereo not given)	inactive: 0.489%
O=P1(N(CCCl)CCCl)OCCCN1CCCl (stereo not given)	inactive: -6.87%
O=P1(N(CCCl)CCCl)Nc2ccccc2N1	inactive: -3.72%
COc1cc(I)ccc1[As](=O)(O)O	inactive: -0.589%
COc1ccc2nc(NP(=O)(c3ccccc3)c3ccccc3)sc2c1	inactive: -5.34%
O=[N+]([O-])c1cc(Oc2ccc([N+](=O)[O-])cc2C(F)(F)F)cc([N+](=O)[O-])c1	inactive: -1.43%
COc1ccc(N/C(=N/P(=O)(N2CCOCC2)N2CCOCC2)N2CCOCC2)cc1	inactive: -4.68%
Cc1ccc(N/C(=N/P(=O)(N2CCOCC2)N2CCOCC2)N2CCOCC2)cc1	inactive: 2.45%
CN(C(=O)Cc1ccc(Cl)c(Cl)c1)[C@H]1CCCC[C@H]1N1CCCC1	inactive: -8.6%
NC(=O)c1cc([N+](=O)[O-])cc([N+](=O)[O-])c1N	inactive: 2.11%

SMILES	inhibition
Clc1ccc(Cl)c(NC2=NCC(CBr)S2)c1 (stereo not given)	inactive: 1.21%
Cc1ccc(OP(=O)(Nc2nccs2)Oc2ccc(C)cc2)cc1	inactive: -0.606%
COc1ccccc1OP(=O)(Nc1ccc(C)cn1)Oc1ccccc1OC	inactive: -1.55%
O=C(NC(Sc1ccncn1)C(Cl)(Cl)Cl)c1ccccc1 (stereo not given)	inactive: 3.93%
CC(C)CC(=O)NC(Sc1ccc(Cl)cc1)C(Cl)(Cl)Cl (stereo not given)	inactive: -5.86%
Nc1cc(N)c2nonc2c1[N+](=O)[O-]	inactive: 7.31%
CN(C)P(=O)(N(C)C)n1c(Nc2ccccc2)nnc1-c1ccccc1	inactive: 1.83%
O=P(Nc1nc2ccc(Cl)cc2s1)(c1ccccc1)c1ccccc1	inactive: 1.6%
CCCC1OP(N)(=O)OCC1CC (stereo not given)	inactive: -1.38%
O=C(O)c1ccccc1[As](=O)(O)O	inactive: 2.77%
CC(=O)Nc1ccc([As](=O)(O)O)cc1	inactive: 2.15%
CCn1c(=O)n(C2CCN(CC3CCCCCCC3)C[C@H]2CO)c2ccccc21 (stereo not given in full)	inactive: 6.77%
Cc1ccc(NP(=O)(Oc2ccccc2F)Oc2ccccc2F)nc1	inactive: 0.288%
CN(C(=O)Cc1ccc(Cl)c(Cl)c1)[C@H]1CCCC[C@@H]1N1CCCC1	inactive: -2.92%
Nc1cccc2ccc([As](=O)(O)O)cc12	active: 50.3%
CN(C(=O)Cc1ccccc1)C1CC[C@@]2(CCCO2)C[C@@H]1N1CCCC1 (stereo not given in full)	inactive: 5.35%
O=P1(N(CCCl)CCCl)OCCCS1 (stereo not given)	inactive: -5.87%
O=C(Nc1cc([As](=O)(O)O)ccc1O)c1ccccc1	inactive: 7.06%
O=[N+]([O-])c1ncn(CCn2ncnc2[N+](=O)[O-])n1	inactive: 0.706%
CC(C)(C)C(=O)NC(Sc1ccncn1)C(Cl)(Cl)Cl (stereo not given)	inactive: 3.02%
O=C(O)CNc1ccc([As](=O)(O)O)cc1	inactive: -0.137%
O=[N+]([O-])c1cccc(NC2=NCC(CBr)S2)c1 (stereo not given)	inactive: -2.85%
COC(=O)C1(C)COP(=O)(Nc2ccccc2)OC1 (stereo not given)	inactive: -0.447%
COc1ccc(C2=NCC(CBr)S2)cc1 (stereo not given)	inactive: -0.025%
O=[N+]([O-])c1cc([N+](=O)[O-])c(CCNc2ccccc2)c([N+](=O)[O-])c1	inactive: 2.11%
